# Laboratory results published in paper PMC3039689, “Identification of Small Molecule Lead Compounds for Visceral Leishmaniasis Using a Novel Ex Vivo Splenic Explant Model System” (PLoS Neglected Tropical Diseases, 2011).
# Tested on: HepG2 cells
# Experiment: Cell toxicity (CC50) in the HepG2 cell line, CellTiter-Glo
# Format: cell-based, human
# Details: 24 h, ATP luminescence, compound from screened library
substance,measurement,value
Monensin Sodium,CC50,72.9 µM
